Earlier results in US20170369677A1, “MATERIALS FREE OF ENDOCRINE DISRUPTIVE ACTIVITY” (CertiChem, Inc., priority 2006, published 2017).

Conditions: common antioxidants used in plastic formulations, Table P-2

Cc1cc(C(C)(C)C)c(O)c(C(C)(C)C)c1 [BHT, Butylated hydroxytoulene]
Carcinogenic or Other Toxic Effects: Yes
